Experimental data: patent US20150320892A1, “IMAGING FIBROSIS” (GE Healthcare Limited, priority 2012, published 2015)

Tests used:
[1] = Biodistribution of 99mTc-Compound 2 in naive rats; type: in vivo, Male Sprague-Dawley rats; settings: rat, i.v., mean±SD, n=3
Experimental: Male Sprague-Dawley rats (231±10 g) were group housed in batches of four, with ad libitum access to food and water. Animals (n=12) were injected with ^99mTc-Compound 2 (0.3 mL, 4-5MBq/animal), as an intravenous bolus via the tail vein. At various times post injection (2, 30, 60 and 120 minutes) animals were euthanised (n=3 per timepoint), dissected.
Data above are presented as % injected dose (mean±SD; n=3 animals per timepoint).

[2] = 10% ethanol/50 mM phosphate buffer solution at 20 MBq/mL, over 3 hr

^99mTc-labelled (R)-(1-(2-(6-(4-((2-aminoethyl)amino)-3-(((2-aminoethyl)amino)methyl)butanamido)hexanamido)acetyl)pyrrolidin-2-yl)boronic acid [^99mTc-Compound 2]
% injected dose, Bladder/Urine ([1]; 2 minutes post injection): 0.10 ± 0.01 % injected dose | % injected dose, Blood ([1]; 2 minutes post injection): 13.62 % injected dose | % injected dose, Bone ([1]; 2 minutes post injection): 7.49 ± 0.79 % injected dose | % injected dose, Kidney ([1]; 2 minutes post injection): 9.32 ± 0.39 % injected dose | % injected dose, Liver ([1]; 2 minutes post injection): 2.28 ± 0.34 % injected dose | % injected dose, Plasma ([1]; 2 minutes post injection): 1.00 ± 0.14 % injected dose | % injected dose, Bladder/Urine ([1]; 30 minutes post injection): 18.56 ± 0.39 % injected dose | % injected dose, Blood ([1]; 30 minutes post injection): 4.87 ± 0.54 % injected dose | % injected dose, Bone ([1]; 30 minutes post injection): 5.03 ± 0.14 % injected dose | % injected dose, Kidney ([1]; 30 minutes post injection): 2.51 ± 0.27 % injected dose | % injected dose, Liver ([1]; 30 minutes post injection): 1.06 ± 0.12 % injected dose | % injected dose, Plasma ([1]; 30 minutes post injection): 0.39 ± 0.03 % injected dose | % injected dose, Bladder/Urine ([1]; 60 minutes post injection): 26.45 ± 1.97 % injected dose | % injected dose, Blood ([1]; 60 minutes post injection): 2.88 ± 0.07 % injected dose | % injected dose, Bone ([1]; 60 minutes post injection): 3.57 ± 0.08 % injected dose | % injected dose, Kidney ([1]; 60 minutes post injection): 2.49 ± 0.13 % injected dose | % injected dose, Liver ([1]; 60 minutes post injection): 0.79 ± 0.02 % injected dose | % injected dose, Plasma ([1]; 60 minutes post injection): 0.23 ± 0.01 % injected dose | % injected dose, Bladder/Urine ([1]; 120 minutes post injection): 33.11 ± 1.86 % injected dose | % injected dose, Blood ([1]; 120 minutes post injection): 1.80 ± 0.03 % injected dose | % injected dose, Bone ([1]; 120 minutes post injection): 2.82 ± 0.07 % injected dose | % injected dose, Kidney ([1]; 120 minutes post injection): 2.10 ± 0.33 % injected dose | % injected dose, Liver ([1]; 120 minutes post injection): 0.63 ± 0.05 % injected dose | % injected dose, Plasma ([1]; 120 minutes post injection): 0.13 ± 0.02 % injected dose | stability after formulation [2]: very stable
